In US9655882B2, “Compositions and methods for treatment of neurodegenerative disease” (THE JOHNS HOPKINS UNIVERSITY, priority 2008, dated 2017):

What was measured:
mouse RGCs [1] = experiment: RGC survival in purified primary mouse RGC culture (high-content screening, Calcein AM/Hoechst/Ethidium Homodimer-1); format: cell-based; details: mouse RGCs in vitro, dosage-dependent
mouse RGCs [2] = experiment: RGC neurite growth in purified primary mouse RGC culture (high-content screening); format: cell-based; details: mouse RGCs in vitro, dosage-dependent

SMILES: CCN(CC)CCNC(=O)c1c(C)[nH]c(/C=C2\C(=O)Nc3ccc(F)cc32)c1C [sunitinib, N-[2-(diethylamino)ethyl]-5-[(Z)-(5-fluoro-1,2-dihydro-2-oxo-3H-indol-3-ylidine)methyl]-2,4-dimethyl-1H-pyrrole-3-carboxamide]
- concentration of peak neuroprotective activity (mouse RGCs [1]): 1 µM
- concentration of peak neurite-promoting activity (mouse RGCs [2]): 500 nM
